Molecular target: Transthyretin (Homo sapiens, UniProt P02766)
Assay: Inhibition of transthyretin fibril formation at pH 4.4 at 50 uM
Assay type: functional
Set-up: scale not given: the % may be the effect or the level left

- Activity: 70%
SMILES: OCc1ccc(Oc2ccccc2)c(O)c1

From ChEMBL document CHEMBL1138243, “Design of mechanism-based inhibitors of transthyretin amyloidosis: studies with biphenyl ethers and new structural templates” (J Med Chem, 2007)
